AlphaSeq binding of Ab-14 light chain variants to a spike HR2 peptide

From the AlphaSeq antibody data of Li et al. 2023 (doi:10.1038/s41467-023-39022-2), copy in the FLAb collection.

Antigen: PDVDLGDISGINAS, a 14-residue peptide of the SARS-CoV-2 spike HR2 region.

Ab-14 is the parent antibody, in scFv form: VH, then a 15-residue (Gly4Ser)3 linker, then VL. The heavy chain is unchanged in all variants.
VH: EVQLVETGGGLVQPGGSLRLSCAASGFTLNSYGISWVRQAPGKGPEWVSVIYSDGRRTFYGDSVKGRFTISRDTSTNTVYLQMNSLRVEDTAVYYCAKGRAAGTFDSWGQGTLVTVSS
VL: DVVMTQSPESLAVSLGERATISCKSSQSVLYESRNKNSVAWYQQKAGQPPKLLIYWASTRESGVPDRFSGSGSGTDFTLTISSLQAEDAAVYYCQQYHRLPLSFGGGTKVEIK

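Phage display of a naive human antibody library on the peptide gave the parent. Designed CDR sequences, proposed from the first random library and measured here. Several design methods are mixed in this list. Affinity was read by AlphaSeq, a pooled yeast mating assay with surface-displayed partners. Mating (16 h, 30 °C) was followed by selection of diploids and sequencing of their barcodes. A regression on co-assayed BCL2-family reference pairs converts the normalised counts of each replicate to an apparent Kd. Each pool was mated in six replicate cultures.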

The parent's light chain CDRs are KSSQSVLYESRNKNSVA, WASTRES, QQYHRLPLS; each variant's own CDRs replace them letter for letter.
Variants here have at most six changes.
Numbers give log10(Kd / nM), so 0 is 1 nM and 3 is 1 µM. Smaller is tighter.
"ND" marks a missing value. The strain was present, yet no cells mated with the target were sequenced in that replicate, which points to weak or no binding.

With KVSQSELYESRNKNSVA, HASTRES, QQYHRLPLS the result was 0.23, -0.33, -0.02, 0.04, -0.28, -0.04.
With KLSQSVLYESRNKNNVA, DASQRES, QQYHRLPLS the result was -0.51, -0.51, -0.68, -0.69, -0.61, -0.45.
With KESQSVLFEWRNKNSVA, DASTREQ, QQYHRLPLS the result was -0.06, 0.30, -0.25, 0.02, -0.20, 0.21.
With HSSPSVLYESRNWNSVA, NASTRES, QQYHRLPLS the result was 0.17, 0.16, 0.02, 0.20, 0.14, 0.35.
With KLSSSQLYESRNKNSVA, NASTRES, QQYHRLPLS the result was -0.25, -0.20, -0.52, -0.62, -0.15, -0.31.
With KSSQSVLYESRNKNSVA, WRSTRES, QAYHRLLLS the result was ND, ND, ND, ND, ND, ND.
With KLQQSVLYESRNKNSVA, DASTRED, QQYHRLPLS the result was -0.21, -0.53, -0.64, -0.64, -0.46, 0.01.
With KFSQWVLYEGRTKNSVA, NASTRES, QQYHRLPLS the result was 0.17, 0.42, 0.16, 0.01, 0.23, 0.59.
With KSSQSWGYESRNKNSVA, DASTRES, QQYHRLPLS the result was -0.27, -0.21, -0.27, -0.38, -0.70, -0.31.
With KYSQSVGYQSRNKWNVA, NASTRES, QQYHRLPLS the result was 0.24, 0.13, 0.28, 0.01, 0.27, 0.29.
With KVYQSGLYESRNKNSVA, NASTRES, QQYHRLPLS the result was -0.30, -0.29, -0.53, -0.45, -0.42, -0.19.
With KSSQSVLYESRNKNSVA, WASTRES, QQYHQLPLS the result was 2.70, 2.48, 2.55, 1.69, 2.06, 2.39.
With KSSQSVLYSSRNKNSVA, WANTRES, QQYHRLPLS the result was ND, 2.33, ND, ND, ND, ND.
With KSSQSFLYESRNVNSVA, HASTRES, QQYHRLPLS the result was 0.92, 0.62, 0.71, 0.91, 0.83, 0.81.
With KLRQSTLYESRNKNSVA, GASTRLS, QQYHRLPLS the result was -0.07, 0.22, -0.18, 0.15, 0.30, 0.00.
With KVSWSVLYESGTKNSVA, NASVRES, QQYHRLPLS the result was 0.45, 0.55, 0.53, 0.54, 0.53, 0.63.
With KSLQSVLYESRNKNSVA, HASTRED, PQVHRLPLS the result was 1.18, 0.65, 1.38, 0.84, 0.70, 0.95.
With KQSHSVDYETRGKNSVA, YASTRES, QQYHRLPLS the result was 1.68, 1.78, ND, 1.47, 1.09, 1.63.
With KLQQLELYESRNKNSVA, SASTREE, QQYHRLPLS the result was -0.28, -0.05, 0.09, -0.23, -0.25, -0.20.
With KLSQSHLYESRNKNSVA, EASTREV, QQYHRLPLS the result was 0.36, -0.11, 0.22, 0.07, 0.51, 0.25.
With KSMQSVSYESRNKNSVA, WASTRES, QQYHRLPLS the result was ND, ND, ND, ND, ND, ND.
With KLSQSWLYESRVKNSVA, NASTRES, QQYHRLPLS the result was -0.32, -0.16, -0.56, -0.20, 0.01, -0.07.
With KYSQSVLYESRNKNSVA, WASTRES, QQYHGLPLS the result was 3.43, ND, ND, ND, 3.17, ND; ND, ND, 1.78, 2.32, 2.39, ND; 2.00, 2.80, 3.78, 2.92, 2.71, ND; ND, ND, ND, 3.07, ND, ND; 1.61, ND, ND, 1.79, ND, 2.90.
With KLPQSVLYESRNKNSVA, QASTREQ, QQYHRLPLS the result was 0.12, -0.23, -0.21, -0.54, -0.33, -0.20.
With KLSQSQLYESRNHKSVA, NASTRVS, QQYHRLPLS the result was 0.00, 0.19, -0.05, -0.30, 0.11, 0.07.
With KSSQSVINESRNLNSVA, WASTRVS, QQYHRLPLS the result was 1.62, 1.50, 1.53, 1.57, 1.44, 1.28.
With KSSQSFLYESRNVNSVA, NASTRES, QQYHRLPLS the result was 0.09, -0.21, -0.34, -0.44, -0.33, -0.06.
With KLSQSDGYESRNKNSVA, HASCRCS, QQYHRLPLS the result was 1.22, 1.09, 1.94, 1.21, 1.16, 1.71.
With MSSQSVEYEDFNKNSVA, WASTRED, QQYHRLPLS the result was ND, ND, 1.72, 2.13, 2.34, 1.69.
With KSSWSYLYESRNENSVA, EASTREQ, QQYHRLPLS the result was 1.09, 0.24, -0.18, -0.18, 0.07, 0.22.
With KLQQSVLYESRNKNSVA, NASTRLD, QQYHRLPLS the result was 0.31, -0.01, -0.16, -0.16, -0.30, 0.38.
With KLSQSVLYESRNKNSVA, DASTREQ, QQYHRLPLS the result was 0.14, -0.13, -0.13, -0.26, -0.01, 0.07.
With KLQQSELYESRNKNSVA, EASTREV, QQYHRLPLS the result was 0.58, 0.04, 0.20, 0.24, 0.38, 0.57.
With KMSQSMLYESRASNSVA, NASNRES, QQYHRLPLS the result was -0.01, 0.30, 0.25, 0.20, 0.54, 0.14.
With KLSQSNLYESRNKNNVA, NASQRES, QQYHRLPLS the result was -0.30, -0.37, -0.58, -0.71, -0.60, -0.53.
With KSDQSVLYESDNKNSVA, GASTRMS, QQYHRLPLS the result was 0.52, 0.34, 0.13, 0.36, 0.45, 0.65.
With KSSQSVLYESVNKNSVA, WASTREN, QQYHRLPLS the result was 1.25, 1.34, 1.10, 1.50, 1.19, 1.48.
With KLSQSVEYESRDKNSVA, DAQTRES, QQYHRLPLS the result was -0.11, -0.12, 0.11, -0.21, 0.11, -0.18.
With KSQQSELYESRNKNSVA, NASQRES, QQYHRLPLS the result was 0.12, -0.19, 0.01, 0.08, 0.25, 0.12.
With KLRQETLYESRNKNSVA, SASTRES, QQYHRLPLS the result was 0.02, -0.49, -0.23, -0.15, -0.23, 0.02.

The first 2 variants above that were never detected:

With KSSQSVLYESRNKNSVA, WRSTRES, QAYHRLLLS the result was ND, ND, ND, ND, ND, ND.
With KSMQSVSYESRNKNSVA, WASTRES, QQYHRLPLS the result was ND, ND, ND, ND, ND, ND.

Three control strains display no target. For all light chain designs, 4% of the pairings with them gave a signal, with a median of 2.64 and one signal in twenty below 1.59, so weak values seen in few replicates may be background.
Values of this round are not directly comparable with the first-round values of the same sequences.
Where one sequence has several entries in the source, the replicates are listed entry by entry, parted by semicolons.
In the paper, a design with two or fewer of six values counts as a poor binder.
Of ten entries with the parent sequence, four were seen in most replicates (averages 0.34 to 2.37), three in one and three in none, so single entries are noisy.